This is an account of results in patent US20040121946A9, “Inducing cellular immune responses to her2/neu using peptide and nucleic acid compositions” (priority 2002, published 2004).

Chains of the proteins cited; added tags and fusions are not shown. Lines headed by an entry give the natural chain unless they say otherwise; changes in a name come on top.
UniProt P04439: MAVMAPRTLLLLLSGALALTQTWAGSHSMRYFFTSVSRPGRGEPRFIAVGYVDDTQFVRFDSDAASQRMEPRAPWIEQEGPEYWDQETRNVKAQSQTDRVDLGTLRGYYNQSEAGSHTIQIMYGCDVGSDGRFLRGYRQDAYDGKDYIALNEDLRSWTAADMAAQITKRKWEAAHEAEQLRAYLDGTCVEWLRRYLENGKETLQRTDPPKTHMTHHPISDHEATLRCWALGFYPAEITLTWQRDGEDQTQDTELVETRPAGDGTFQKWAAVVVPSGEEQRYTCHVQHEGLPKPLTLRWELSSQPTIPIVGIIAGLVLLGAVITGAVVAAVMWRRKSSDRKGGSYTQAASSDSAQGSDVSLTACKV

SMILES strings stand for the structures. pIC50: −log10 of the molar value. Where only a bound is given, the exact number is not on record here.

Experiment [1] deals with tumor targets that endogenously express HER2/neu (colon adenocarcinoma cell lines SW403 and HT-29). Kind of experiment: Primary in vitro CTL induction, recognition of wild-type peptide and endogenous tumor targets (51Cr release / in situ IFNγ ELISA). The class given is cell-based, human. The note with it: number of donors yielding a positive response/total tested; normal donors. A general note: In an ELISA, binding on a coated surface is turned into a signal by an enzyme label.

Another experiment has as its target HLA-A*0201 (Homo sapiens, UniProt P04439, D140Y/D185E/D98H/E176V/E277Q/G131W/G231S/I119V/I121R/I166T/I218V/L300P/L318F/N151K/N90K/P208A/P217A/Q86G/Q94H/R138H/R169H/T345S). In kind it is binding.
The target of a further experiment is HLA-A*3301 (Homo sapiens, UniProt P04439, A270S/D185E/E176V/E277Q/E87N/F33T/G231S/H175R/I121M/I218V/I322F/K168Q/K210R/L300P/L318F/M331R/P217A/Q86R/Q94H/R138Q/T323A/T345S/T97I/V358M/Y195H). The class given is binding. The conditions noted are these: Table XXIII, HLA-A3 supermotif-bearing peptides.

For `CC[C@H](C)[C@H](NC(=O)[C@@H](N)CCCCN)C(=O)N[C@@H](Cc1ccccc1)C(=O)NCC(=O)N[C@@H](CO)C(=O)N[C@@H](CC(C)C)C(=O)N[C@@H](C)C(=O)N[C@@H](Cc1ccccc1)C(=O)N[C@@H](CC(C)C)C(=O)O`, in experiment [1], the “CTL Tumor” value is on record as 4/7 and the “CTL Wildtype” value is 6/7.

One may read the pIC50 as −log10 of the IC50, conventionally taken in molar units. Lower therefore signals a high IC50. For the compound `CC(C)C[C@H](NC(=O)[C@H](CCC(N)=O)NC(=O)[C@@H](NC(=O)[C@@H](NC(=O)[C@H](CO)NC(=O)[C@@H](NC(=O)[C@H](CC(C)C)NC(=O)[C@@H](N)CS)[C@@H](C)O)[C@@H](C)O)C(C)C)C(=O)N[C@H](C(=O)O)C(C)C`, the negative logarithm of the IC50 (pIC50) at HLA-A*0201 is 6.68.

As to `CC[C@H](C)[C@H](NC(=O)CNC(=O)[C@H](Cc1ccccc1)NC(=O)[C@@H](NC(=O)[C@@H](N)C(C)C)C(C)C)C(=O)N[C@@H](CC(C)C)C(=O)N[C@H](C(=O)N[C@@H](CCCCN)C(=O)N[C@@H](CCCCN)C(=O)O)[C@@H](C)CC` [Her2/neu.669.K9], on HLA-A*3301, the pIC50 was less than 5.00.
